Data reported in patent US11124574B2, “Specific photoimmuno-theranostics for detection and elimination of skin cancer cells” (University of Cape Town, priority 2015, dated 2021).

Columns and labels:
Assay in all cases: XTT cell viability assay after light treatment
Format in all cases: cell-based, human
[1] = system: IGR-1; details: light 580-1400 nm
Experimental: (§1) The human skin epidermoid carcinoma cell line A431 (ATCC: CRL-259), human embryonic kidney (HEK-293T) cell line (ATCC: CRL-11268) and the human melanoma cell line A2058 (ATCC: CRL-11147) were cultured in RPMI-1640 medium. The human melanoma cell line IGR-39 (DSMZ: ACC 239) and IGR-1 (DSMZ: ACC-236) were cultured in DEME medium. All media were supplemented with 2 mM L-glutamine, 10% (v/v) fetal bovine serum (FBS) and 100 U/mL penicillin-streptomycin; the cells were incubated at 37° C. in a 5% CO2 atm. All media and additives were purchased from Life Technologies, Darmstadt, Germany.
(§2) In addition to the in vitro imaging specificity, the phototoxic activity of scFv-SNAP-IR700 and free IR700 were also investigated using cell proliferation and cell apoptosis assays as described previously (9). Briefly, 2×10^4 cells were seeded in 96-well plates and incubated overnight at 37° C. The cells were treated with different concentrations (0, 12.5, 25, 50, 100, 200 and 400) nM of scFv-425-SNAP, IR700 or equivalent concentration of scFv-SNAP-425-IR700 for 3 h at 37° C. in the dark. Toxic control cultures were incubated with 500 μg/mL zeocin instead of the photosensitizer.
(§3) Before light irradiation, cells were washed three times with PBS and fresh phenol red free culture media were added to the cells. Light treatment was performed with a Hydrosun® Typ 750 radiator with a water-containing cuvette and an orange filter OG590, with 140 mW/cm^2, dose: 25 J/cm^2a VIS, 76 J/cm^2 wIRA, exposure time: 15 min, and a spectrum in the range of 580-1400 nm (Hydrosun Medizintechnik GmbH, Mülhelm, Germany). […]
(§4) Cell viability was measured using the cell proliferation kit II (XTT®) (Roche, Mannheim Germany) according to the manufacturer's instructions. […] Cell viability was determined colorimetrically by monitoring the reduction of XTT® to formazan at 450 nm absorbance wavelength and 630 nm reference wavelength using the ELx808 absorbance micro-plate reader (BioTek Instruments GmbH, Bad Friedrichshall, Germany).

[2] = system: A431; details: light 580-1400 nm, 3 h incubation, read 24 h after light
Experimental: as §1, §2, §3, §4

[3] = system: IGR-39; details: light 580-1400 nm
Experimental: as §1, §2, §3, §4

B1: scFv-425-SNAP-IR700: IR700 photosensitizer (via BG-PEG24 linker) conjugated to anti-EGFR single-chain variable fragment scFv-425 fused to SNAP-tag (conjugate)
scFv: MAQVQLQQSGAELVKPGASVKLSCKASGYTFTSHWMHWVKQRAGQGLEWIGEFNPSNGRTNYNEKFKSKATLTVDKSSSTAYMQLSSLTSEDSAVYYCASRDYDYDGRYFDYWGQGTTVTVSSGGGGSGGGGSGGGGSDIELTQSPAIMSASPGEKVTMTCSASSSVTYMYWYQQKPGSSPRLLIYDTSNLASGVPVRFSGSGSGTSYSLTISRMEAEDAATYYCQQWSSHIFTFGSGTELEIKRMDKDCEMKRTTLDSPLGKLELSGCEQGLHEIKLLGKGTSAADAVEVPAPAAVLGGPEPLMQATAWLNAYFHQPEAIEEFPVPALHHPVFQQESFTRQVLWKLLKVVKFGEVISYQQLAALAGNPAATAAVKTALSGNPVPILIPCHRVVSSSGAVGGYEGGLAVKEWLLAHEGHRLGKP
modifications: left off: small tags and cut ends
notes: IR700 photosensitizer (via BG-PEG24 linker) conjugated to anti-EGFR single-chain variable fragment scFv-425 fused to SNAP-tag
EC50 [1]: 45 nM | EC50 [2]: 32 nM | EC50 [3]: 55 nM
